A word on the IC50: it is the concentration that inhibits the measured activity by half.

Protein sequences, listed by entry. Tags and fused reporters are not part of them.
UniProt Q99720, whole entry: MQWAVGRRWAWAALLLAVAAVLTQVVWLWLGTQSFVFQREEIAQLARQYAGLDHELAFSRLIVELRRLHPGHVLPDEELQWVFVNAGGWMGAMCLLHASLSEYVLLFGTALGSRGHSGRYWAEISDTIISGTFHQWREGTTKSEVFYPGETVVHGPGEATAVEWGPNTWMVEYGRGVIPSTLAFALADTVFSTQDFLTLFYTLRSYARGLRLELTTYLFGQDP

In BindingDB's records for 2172538 one finds IC50 data, which are given here for one molecule.

The target in the experiment is Sigma non-opioid intracellular receptor 1 (Homo sapiens, UniProt Q99720). The experiment is described as follows: Binding affinity for sigma opioid receptor using [3H](+)-3-PPP as radioligand.

Take `CN(C(=O)Cc1ccc(Cl)c(Cl)c1)[C@@H]1CCCC[C@@H]1N1CCCC1`: the IC50 was determined as 194 nM.
